Earlier results in patent US20150037832A1, “METHODS OF FACILITATING THE BIOCONVERSION OF CRUDE BIODIESEL-DERIVED GLYCEROL BY MICROORGANISMS” (priority 2011, published 2015).

Tested on: Clostridium pasteurianum ATCC 6013
Conditions: related art statement; cited from earlier work

In the case of butanol, the “concentration at which butanol becomes toxic to the cells” value is given as 2%.
